{"sequences": {"note": "Amino acid sequences for entries named in this document (tags omitted).", "UniProt Q9NYA1, whole entry": "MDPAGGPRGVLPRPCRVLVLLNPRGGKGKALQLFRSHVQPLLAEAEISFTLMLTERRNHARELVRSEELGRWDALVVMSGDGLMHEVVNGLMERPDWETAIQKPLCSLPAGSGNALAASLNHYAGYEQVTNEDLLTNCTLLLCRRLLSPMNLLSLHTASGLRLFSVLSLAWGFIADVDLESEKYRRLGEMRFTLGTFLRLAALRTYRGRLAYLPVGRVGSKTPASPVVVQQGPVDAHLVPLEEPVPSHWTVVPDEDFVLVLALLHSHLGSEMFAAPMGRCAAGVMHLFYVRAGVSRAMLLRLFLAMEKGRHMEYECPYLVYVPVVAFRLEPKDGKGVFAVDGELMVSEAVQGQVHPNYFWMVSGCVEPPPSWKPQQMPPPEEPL"}, "source": "ChEMBL document CHEMBL1154587", "about": "“Discovery of novel sphingosine kinase 1 inhibitors” (Bioorg Med Chem Lett, 2009)", "target": "Sphingosine kinase 1 (Homo sapiens, UniProt Q9NYA1)", "assay": "Inhibition of human sphingosine kinase 1 by off chip mobility shift assay", "note": "pIC50: −log10 of the molar value.", "data": [{"smiles": "CCCCCCCCc1ccc(NC(=O)[C@@H](N)[C@@H](O)CC)cc1", "note": "(racemic)", "values": [{"measurement": "pIC50", "value": 5.49}]}, {"smiles": "CCCCCCCCc1ccc(CNC(=O)C(N)CCO)cc1", "note": "(racemic)", "values": [{"measurement": "pIC50", "value": 5.46}]}]}
